Values of other authors in patent publication US20260382601A1, “USE OF CYP3A4/5 INDUCERS IN TREATING OR ALLEVIATING PERIPHERAL NEUROPATHY” (published 2026).
Where two headings read alike, the source gives them in different places.

Assays:
[1] = tested on: peripheral neuropathy caused by anticancer treatments; details: clinical trials; literature 8
CYP3A = details: literature 16
CYP3A4/5 = details: literature 15
P-glycoprotein (P-gp) = details: in addition to regulating CYP3A
peripheral nerves = details: clinically demonstrated; literature 4

In the case of `CN(C)CCC=C1c2ccccc2CCc2ccccc21`, the “alleviation of symptoms of peripheral neuropathy caused by anticancer treatments” value (shortened to “alleviation”) [1] is given as “most of the trials failed to alleviate the symptoms of the patients”.

For `NCC1(CC(=O)O)CCCCC1`, the “alleviation” value [1] is listed as “most of the trials failed to alleviate the symptoms of the patients”.

For `CC[C@H](C)[C@@H]([C@@H](CC(=O)N1CCC[C@H]1[C@H](OC)[C@@H](C)C(=O)N[C@H](C)[C@@H](O)c1ccccc1)OC)N(C)C(=O)[C@@H](NC(=O)[C@@H](NC)C(C)C)C(C)C`, the “exposure amount of MMAE” value (CYP3A; ketoconazole group) is listed as “high”, the “exposure amount of MMAE” value (CYP3A; rifampicin group) is listed as “low” and the “clearance route of MMAE” value (CYP3A4/5) is listed as “primarily occurs through CYP3A4/5-mediated metabolic pathways, as well as biliary/fecal excretion, with a minor contribution from renal clearance”.

For `CO[C@H]1/C=C/O[C@@]2(C)Oc3c(C)c(O)c4c(O)c(c(/C=N/N5CCN(C)CC5)c(O)c4c3C2=O)NC(=O)/C(C)=C\C=C\[C@H](C)[C@H](O)[C@@H](C)[C@@H](O)[C@@H](C)[C@H](OC(C)=O)[C@@H]1C`, the “regulation of P-gp expression” value (P-glycoprotein (P-gp)) is listed as “can regulate the expression of P-gp”.

In the case of `CC(C)C[C@H](CN)CC(=O)O`, the “alleviation” value [1] is given as “most of the trials failed to alleviate the symptoms of the patients”.

In the case of `CC(=O)O[C@H]1C(=O)[C@@]2(C)[C@H]([C@H](OC(=O)c3ccccc3)[C@]3(O)C[C@H](OC(=O)[C@H](O)[C@@H](NC(=O)c4ccccc4)c4ccccc4)C(C)=C1C3(C)C)[C@]1(OC(C)=O)CO[C@@H]1C[C@@H]2O`, the “toxicity to peripheral nerves” value (peripheral nerves) is listed as “can cause toxicity to peripheral nerves”.
